In US10093658B2, “Bifunctional compounds and use for reducing uric acid levels” (Acquist LLC, priority 2015, dated 2018) one finds IC50 data, which are given here for one molecule.

Sequences of proteins named here, by UniProt entry; tags and fusion partners are left off. A change or cut given only in a name is not applied to a line headed by its entry.
UniProt Q96S37: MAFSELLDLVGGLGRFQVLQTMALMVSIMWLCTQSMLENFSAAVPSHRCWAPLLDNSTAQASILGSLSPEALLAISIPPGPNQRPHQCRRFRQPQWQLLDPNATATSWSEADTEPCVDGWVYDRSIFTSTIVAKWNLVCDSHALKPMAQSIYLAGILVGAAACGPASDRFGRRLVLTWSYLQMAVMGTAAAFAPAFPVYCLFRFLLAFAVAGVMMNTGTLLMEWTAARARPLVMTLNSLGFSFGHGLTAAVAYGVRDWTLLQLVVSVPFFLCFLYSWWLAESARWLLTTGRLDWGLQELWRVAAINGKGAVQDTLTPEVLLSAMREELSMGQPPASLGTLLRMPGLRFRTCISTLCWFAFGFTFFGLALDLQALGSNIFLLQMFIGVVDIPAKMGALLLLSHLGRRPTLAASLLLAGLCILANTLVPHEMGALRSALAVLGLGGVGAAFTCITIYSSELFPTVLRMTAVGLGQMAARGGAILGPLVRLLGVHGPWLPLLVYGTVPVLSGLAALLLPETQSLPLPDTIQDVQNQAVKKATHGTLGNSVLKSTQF

The structures appear in SMILES notation.

As usually defined, the IC50 is the midpoint of a concentration-inhibition curve.

The target in this experiment is URAT1 (SLC22A12) (Homo sapiens (Human), UniProt Q96S37). Description: URAT1 (SLC22A12) cellular uptake assay, 3H-orotate transport in stably transfected URAT-1/CHO cells.

As to `O=C(O)CSc1nnc(Br)n1-c1ccc(C2CC2)c2ccccc12` [Lesinurad, lesinurad, reference compound], the IC50 is 18 to 53 µM.
